Molecular target: recombinant human renin (Homo sapiens, UniProt P00797)
Experiment: Primary renin inhibition assay: IC50 in buffer, 384 well MTP (AngI quantified by EIA)
Format: biochemical
Settings: human tetradecapeptide substrate, 37° C. for 3 h
Description: 1. Enzyme Immuno Assay (EIA) to Estimate AngI Accumulation and Renin Inhibition
1.1 Preparation of AngI-BSA Conjugate
1.3 mg (1 μmol) of AngI [1-10 (Bachem, H-1680)] and 17 mg (0.26 μmol) of BSA (Fluka, 05475) were dissolved in 4 mL of 0.1M phosphate buffer, pH 7.4, after which 2 mL of a 1:100 dilution of glutaraldehyde in H2O (Sigma G-5882) was added dropwise. The mixture was incubated overnight at 4° C., then dialyzed against 2 liters of 0.9% NaCl, twice for 4 h at rt, followed by dialysis against 2 liters of PBS 1× overnight at rt. The solution was then filtered with a Syringe filter, 0.45 μm (Nalgene, Cat. No. 194-2545). The conjugate can be stored in polypropylene tubes in 0.05% sodium azide at 4° C. for at least 12 months.
1.2 Preparation of BSA-AngI Coated MTP […]
The renin assay was adapted from an assay described before (Fischli W. et al., Hypertension, 1991, 18:22-31) and consists of two steps: in the first step, recombinant human renin is incubated with its substrate (commercial human tetradecapeptide renin substrate) to create the product Angiotensin I (AngI). In the second step, the accumulated AngI is measured by an immunological assay (enzyme immuno assay, EIA). […]

By UniProt entry, the sequences of proteins in these tests, tags left out. Residues count along the entry.
UniProt P00797, 67-406: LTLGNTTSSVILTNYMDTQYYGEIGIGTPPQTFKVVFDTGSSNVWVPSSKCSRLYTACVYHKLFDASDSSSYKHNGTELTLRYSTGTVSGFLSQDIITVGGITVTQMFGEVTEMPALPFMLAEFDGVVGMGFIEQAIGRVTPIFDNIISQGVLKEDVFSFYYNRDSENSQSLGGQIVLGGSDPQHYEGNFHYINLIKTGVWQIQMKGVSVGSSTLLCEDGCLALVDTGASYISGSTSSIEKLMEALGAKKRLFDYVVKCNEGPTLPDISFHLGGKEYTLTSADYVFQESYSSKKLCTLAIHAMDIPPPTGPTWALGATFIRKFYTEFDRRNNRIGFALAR

For “(rac.)-(R*)-3-Amino-N-cyclopropyl-2-(2-{2-[2,6-dichloro-4-((R*)-1-hydroxy-ethyl)-phenoxy]-ethoxy}-thiazol-5-ylmethyl)-N-(2,3-dimethyl-benzyl)-propionamide and (rac.)-(R*)-3-amino-N-cyclopropyl-2-(2-{2-[2,6-dichloro-4-((S*)-1-hydroxy-ethyl)-phenoxy]-ethoxy}-thiazol-5-ylmethyl)-N-(2,3-dimethyl-benzyl)-propionamide [Example 6]”, the IC50 was 8.1 nM.
